pEC50: −log10 of the molar value.
How the values were obtained:
H412Lpparβ [1] = target: T1, H412Lpparβ (Mus musculus, UniProt P35396, H412L)
PPARβ [2] = target: T2, PPARβ (Mus musculus, UniProt P35396); assay: biochemical
T2 sequence (P35396 1-440): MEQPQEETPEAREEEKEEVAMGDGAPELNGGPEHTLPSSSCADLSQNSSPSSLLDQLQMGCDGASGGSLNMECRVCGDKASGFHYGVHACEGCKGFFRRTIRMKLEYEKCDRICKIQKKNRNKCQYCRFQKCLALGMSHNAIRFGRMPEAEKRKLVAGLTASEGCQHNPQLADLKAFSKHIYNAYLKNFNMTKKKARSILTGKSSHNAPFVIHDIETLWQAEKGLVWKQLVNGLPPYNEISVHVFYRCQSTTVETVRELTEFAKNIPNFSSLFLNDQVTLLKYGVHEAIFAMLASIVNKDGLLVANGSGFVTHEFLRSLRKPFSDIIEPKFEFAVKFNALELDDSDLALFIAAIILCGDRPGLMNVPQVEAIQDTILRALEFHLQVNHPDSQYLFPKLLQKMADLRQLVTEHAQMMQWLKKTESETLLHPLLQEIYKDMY

PPARβ LBD = target: T3, PPARβ LBD (Homo sapiens, UniProt Q03181); assay: TR-FRET (Lanthascreen PPAR-β coactivator assay)
T3 sequence (Q03181 211-439 limits assumed): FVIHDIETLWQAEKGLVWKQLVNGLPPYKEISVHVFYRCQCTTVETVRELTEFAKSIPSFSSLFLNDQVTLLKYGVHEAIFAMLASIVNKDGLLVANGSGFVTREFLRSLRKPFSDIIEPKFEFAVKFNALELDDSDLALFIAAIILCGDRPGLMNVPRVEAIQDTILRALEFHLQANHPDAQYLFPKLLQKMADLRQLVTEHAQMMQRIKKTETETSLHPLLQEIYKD

intestinal cancer = details: preclinical model; cited from earlier work
breast cancer = details: preclinical model; cited from earlier work
flpparβ = target: T4, flpparβ (Mus musculus, UniProt P35396); assay: PPRE-luciferase assay in Pparb-null OPCs transduced with GFPflpparβ; assay type: cell-based; details: GFPflpparβ-infected Pparb-null OPCs, increasing doses
T4 construct: host or cells: Pparb-null mouse primary OPCs (lentiviral transduction)
T4 sequence (P35396 1-440): T2 sequence (P35396 1-440)

H412Lpparβ [3] = target: T1, H412Lpparβ; assay: PPRE-luciferase assay in Pparb-null OPCs transduced with GFPH412Lpparβ; assay type: cell-based; parameters: host or cells: Pparb-null mouse primary OPCs (lentiviral transduction); details: increasing doses
Pparb-null OPCs = assay: NG2/MBP dual immunofluorescence in Pparb-null OPCs transduced with PPARβ constructs; assay type: cell-based, mouse; details: 24 hrs
PLP, MOG, MBP and CNPase = assay: Real-time and semi-quantitative RT-PCR of myelin genes in OPCs; assay type: cell-based, mouse; details: cultured OPCs
Experimental: FIG. 1A-1T. The role of DBB, DBP and MePA in the differentiation of OPC into oligodendrocytes and myelination. […] Briefly, mouse primary OPCs were treated with different concentrations of molecules for 1 hr, lysed and measured for DNA probe binding activity of PPARβ. […] Benzene was included as negative control. **p<0.01 vs. control for PLP, MOG, MBP, and CNPase. Results are mean±SD of three independent experiments. (FIG. 1G) Immunoblot followed by (FIG. 1H) relative densitometric analyses of PLP and MBP in mouse primary OPCs treated with increasing concentrations of DBB for 18 hrs. Band intensity was measured with image J software and then normalized with respective actin band. *p<0.05 (=0.041) vs. PLP control and *p<0.05 (=0.026) vs. MBP control. […] (N) Mean fluorescence intensity (MFI) of MBP was measured from total 15 cells per group with three cells from 5 different images per group. […] (FIG. 1Q) Mean fluorescence intensity (MFI) of MBP was measured from total 15 cells per group with three cells from 5 different images per group. […] (FIG. 1T) Numbers of MBP-ir cells of different treatment groups were counted per sq.mm of nanofiber matrix and presented as a histogram. […]
DBB, DBP and MePA stimulate the differentiation of OPC to oligodendrocytes and promote myelination. […] After that, cells were lysed and assessed for PPRE-luciferase activity. […]

PPARβ [4] = target: T2, PPARβ; assay: PPRE-driven luciferase assay in cultured OPCs; assay type: cell-based; parameters: OPCs were transfected with PPRE-luciferase for 48 hrs and then treated with these compounds; endogenous in cells; host or cells: mouse primary OPCs from P1 cerebellum; details: different concentrations
GFPH412Lpparβ = target: T5, GFPH412Lpparβ (Mus musculus, UniProt P35396, H412L); assay: GFP-affinity purification and GCMS of Pparb-null OPCs transduced with GFPH412Lpparβ; assay type: binding
T5 construct: host or cells: Pparb-null mouse primary OPCs (lentiviral transduction)

In the case of `CC(C)(C)c1cccc(C(C)(C)C)c1` [DBB, 1,3-Di-tertbutyl benzene], the “ΔTm (shift of melting curve)” value (H412Lpparβ [1]) was 5.95 °C, the pEC50 (PPARβ [2]) was ~6.30 and the ΔTm at 1 µM (PPARβ [2]; read-out: ΔTm) was 2.14 °C. The pEC50 (PPARβ LBD) was 6.28.

In the case of `Cc1cc(SCc2sc(-c3ccc(C(F)(F)F)c(F)c3)nc2C)ccc1OCC(=O)O` [GW0742], the “tumour promotion (intestinal cancer)” value (intestinal cancer) is given as “stimulated intestinal cancer”.

For `Cc1cc(SCc2sc(-c3ccc(C(F)(F)F)cc3)nc2C)ccc1OCC(=O)O` [GW501516], the “tumour promotion (breast cancer)” value (breast cancer) is given as “promoted the development of breast cancer”.

In the case of `CCCCCCCCCCCCCCCC(=O)OC` [MePA, Methyl palmitate], the “ΔTm (shift of melting curve)” value (H412Lpparβ [1]) was 4.03 °C, the PPRE-luciferase activity (flpparβ) was “increased PPRE-luciferase activity” and the PPRE-luciferase activity (H412Lpparβ [3]) was “increased PPRE-luciferase activity”. For the same compound, the “expression of MBP / differentiation” value (Pparb-null OPCs; H412Lpparβ-infected Pparb-null OPCs) was “increased the expression of MBP”, the “expression of MBP / differentiation” value (Pparb-null OPCs; V304Mpparβ-infected Pparb-null OPCs) was “but not V304Mpparβ-infected” and the “expression of MBP / differentiation” value (Pparb-null OPCs; flpparβ-transduced Pparb-null OPCs) was “increased the expression of MBP”. For the same compound, the “expression of myelin genes (PLP, MOG, MBP, CNPase mRNA)” value (PLP, MOG, MBP and CNPase) was “upregulated the expression of myelin genes”, the PPRE-luciferase activity (PPARβ [4]) was “increased the PPRE-luciferase activity in a dose-dependent manner” and the pEC50 (PPARβ [2]) was ~7.30. The ΔTm at 0.1 µM (PPARβ [2]; read-out: ΔTm) was 5.28 °C, the “Adjusted Peak Area” value (GFPH412Lpparβ; ligand peak area divided by dodecane peak) was 0.009431 and the RA (GFPH412Lpparβ; relative abundance vs GFPflpparβ) was 0.8732.

Reference: US20220331267A1, “METHODS AND COMPOSITIONS FOR TREATMENT OF DEMYELINATING DISORDERS” (Rush University Medical Center, priority 2019, published 2022)
